According to ChEMBL document CHEMBL4359929, “Piperidine and piperazine inhibitors of fatty acid amide hydrolase targeting excitotoxic pathology” (Bioorg Med Chem, 2019):
Calls of active or inactive are those of the source.

Chains of the proteins cited; added tags and fusions are not shown. Lines headed by an entry give the natural chain unless they say otherwise; changes in a name come on top.
UniProt P20272, whole entry, looked up: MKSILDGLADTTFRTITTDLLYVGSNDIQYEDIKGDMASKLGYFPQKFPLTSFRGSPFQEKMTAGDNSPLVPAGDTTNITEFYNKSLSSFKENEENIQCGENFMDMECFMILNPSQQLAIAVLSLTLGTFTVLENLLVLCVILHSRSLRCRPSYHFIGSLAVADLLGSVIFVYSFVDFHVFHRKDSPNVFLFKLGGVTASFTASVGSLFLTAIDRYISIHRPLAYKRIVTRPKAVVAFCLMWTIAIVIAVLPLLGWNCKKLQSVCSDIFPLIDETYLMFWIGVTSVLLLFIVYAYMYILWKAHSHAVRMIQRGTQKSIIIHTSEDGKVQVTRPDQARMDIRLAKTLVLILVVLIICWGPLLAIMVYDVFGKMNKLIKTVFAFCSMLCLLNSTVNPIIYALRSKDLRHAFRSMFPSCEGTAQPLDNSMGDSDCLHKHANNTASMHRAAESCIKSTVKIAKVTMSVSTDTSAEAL
UniProt P47936: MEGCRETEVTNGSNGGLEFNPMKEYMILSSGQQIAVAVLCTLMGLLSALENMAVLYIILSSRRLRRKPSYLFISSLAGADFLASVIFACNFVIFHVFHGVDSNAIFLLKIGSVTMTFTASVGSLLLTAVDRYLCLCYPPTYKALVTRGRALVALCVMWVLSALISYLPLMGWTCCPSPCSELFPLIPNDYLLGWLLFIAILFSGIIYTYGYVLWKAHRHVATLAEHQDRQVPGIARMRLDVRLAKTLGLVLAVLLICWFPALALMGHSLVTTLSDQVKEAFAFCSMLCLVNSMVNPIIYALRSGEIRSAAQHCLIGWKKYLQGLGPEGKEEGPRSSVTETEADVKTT
UniProt P34972, whole entry, looked up: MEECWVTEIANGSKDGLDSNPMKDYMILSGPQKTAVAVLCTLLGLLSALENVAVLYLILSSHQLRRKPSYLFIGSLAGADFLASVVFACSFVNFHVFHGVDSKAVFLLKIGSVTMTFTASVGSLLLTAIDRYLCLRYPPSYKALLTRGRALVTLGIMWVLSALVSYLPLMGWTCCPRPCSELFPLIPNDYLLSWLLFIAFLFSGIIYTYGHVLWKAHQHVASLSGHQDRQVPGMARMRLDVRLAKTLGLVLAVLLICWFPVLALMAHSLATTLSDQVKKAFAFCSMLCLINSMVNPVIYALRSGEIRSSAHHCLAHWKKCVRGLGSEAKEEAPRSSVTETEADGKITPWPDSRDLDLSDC

Columns and labels:
[1] = target: Cannabinoid receptor 1 (Rattus norvegicus) (UniProt P20272); assay: Displacement of [3H]CP55940 from CB1 receptor in rat brain by competition-equilibrium binding analysis; assay type: tissue-based
How it was run: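 Rat brain membranes as CB1 source; competition-equilibrium binding against [3H]CP-55,940.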

[2] = target: T1, Cannabinoid receptor 2 (Rattus norvegicus) (UniProt Q9QZN9); assay: Displacement of [3H]CP55940 from CB2 receptor in rat brain by competition-equilibrium binding analysis; assay type: tissue-based
T1 sequence (whole entry): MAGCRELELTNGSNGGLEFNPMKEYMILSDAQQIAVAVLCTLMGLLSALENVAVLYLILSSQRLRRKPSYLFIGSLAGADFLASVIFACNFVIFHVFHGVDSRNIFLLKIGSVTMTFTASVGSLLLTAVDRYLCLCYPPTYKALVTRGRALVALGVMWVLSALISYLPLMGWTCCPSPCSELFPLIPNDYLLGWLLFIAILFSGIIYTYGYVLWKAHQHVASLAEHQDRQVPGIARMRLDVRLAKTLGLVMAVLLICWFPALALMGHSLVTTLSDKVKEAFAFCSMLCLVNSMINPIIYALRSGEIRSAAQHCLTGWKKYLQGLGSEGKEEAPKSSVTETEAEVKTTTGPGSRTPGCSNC

[3] = target: Cannabinoid receptor 2 (Mus musculus) (UniProt P47936); assay: Displacement of [3H]CP55940 from mouse CB2 receptor expressed in HEK293 cells by competition-equilibrium binding analysis; assay type: cell-based
How it was run: (§1)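 HEK293 cell membranes expressing mouse or human CB2; competition-equilibrium binding against [3H]CP-55,940.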

[4] = target: Cannabinoid receptor 2 (Homo sapiens) (UniProt P34972); assay: Displacement of [3H]CP55940 from human CB2 receptor expressed in HEK293 cells by competition-equilibrium binding analysis; assay type: cell-based; how it was run: as §1

Measured: Activity

O=C(Oc1cncc(N2CCS(=O)(=O)CC2)c1)N1CCC(c2ccc(F)cc2)CC1
inactive: [1] | [2] | [3] | [4]
